According to paper PMC5702903 (CPT: Pharmacometrics & Systems Pharmacology, 2017):

Assay: Asymmetry factors
Set-up: species or system rat
Settings: for AFin2, asymmetry factor: into CSFLV at BCSFB1; for AFin2, asymmetry factor / AFout2, asymmetry factor: calculated from Kp,uu,CSFLV; for AFin3, asymmetry factor: into CSFTFV at BCSFB2; for AFin3, asymmetry factor / AFout3, asymmetry factor: calculated from Kp,uu,CSFCM; for AFin1, asymmetry factor: into brainECF at BBB; for AFin1, asymmetry factor / AFout1, asymmetry factor: calculated from Kp,uu,brainECF; for AFout2, asymmetry factor: out from CSFLV at BCSFB1; for AFout3, asymmetry factor: out from CSFTFV at BCSFB2; for AFout1, asymmetry factor: out from brainECF at BBB

Row | AFin2, asymmetry factor | AFin3, asymmetry factor | AFin1, asymmetry factor | AFout2, asymmetry factor | AFout3, asymmetry factor | AFout1, asymmetry factor | SMILES
1 | 1.0 | 1.0 | 1.0 | 29 | 32 | 12 | CC(=O)Nc1ccc(O)cc1 [Acetaminophen]
2 | 1.0 | 1.0 | 1.0 |  | 1.0*10^6 | 4.6*10^4 | CN(Cc1cnc2nc(N)nc(N)c2n1)c1ccc(C(=O)N[C@@H](CCC(=O)O)C(=O)O)cc1 [Methotrexate]
3 | 1.4 | 1.4 | 1.2 | 1.0 | 1.0 | 1.0 | C=C[C@H]1C[N@@]2CC[C@H]1C[C@@H]2[C@@H](O)c1ccnc2ccc(OC)cc12 [Quinidine]
